Data as given in PubChem BioAssay (Tox21).
Where “and” joins values, the source holds several entries; their conditions need not be identical. Equal entries are not always repeated. The list shows a part of the results, in another mix than the full data. Results filed as inconclusive are left out. More than one record can exist for a structure, and the calls need not agree. Calls of active or inactive are those of the source. Unless noted, the call rests on the fitted dose curve; in most records, active means well fitted curve in the direction sought with a large enough effect in the repeat runs; inconclusive means weak or mixed curves; inactive means no such curve, though single readings can be large; an effect the other way counts as inactive or inconclusive.

Sequences of proteins named here, by UniProt entry; tags and fusion partners are left off.
UniProt P10275, whole entry: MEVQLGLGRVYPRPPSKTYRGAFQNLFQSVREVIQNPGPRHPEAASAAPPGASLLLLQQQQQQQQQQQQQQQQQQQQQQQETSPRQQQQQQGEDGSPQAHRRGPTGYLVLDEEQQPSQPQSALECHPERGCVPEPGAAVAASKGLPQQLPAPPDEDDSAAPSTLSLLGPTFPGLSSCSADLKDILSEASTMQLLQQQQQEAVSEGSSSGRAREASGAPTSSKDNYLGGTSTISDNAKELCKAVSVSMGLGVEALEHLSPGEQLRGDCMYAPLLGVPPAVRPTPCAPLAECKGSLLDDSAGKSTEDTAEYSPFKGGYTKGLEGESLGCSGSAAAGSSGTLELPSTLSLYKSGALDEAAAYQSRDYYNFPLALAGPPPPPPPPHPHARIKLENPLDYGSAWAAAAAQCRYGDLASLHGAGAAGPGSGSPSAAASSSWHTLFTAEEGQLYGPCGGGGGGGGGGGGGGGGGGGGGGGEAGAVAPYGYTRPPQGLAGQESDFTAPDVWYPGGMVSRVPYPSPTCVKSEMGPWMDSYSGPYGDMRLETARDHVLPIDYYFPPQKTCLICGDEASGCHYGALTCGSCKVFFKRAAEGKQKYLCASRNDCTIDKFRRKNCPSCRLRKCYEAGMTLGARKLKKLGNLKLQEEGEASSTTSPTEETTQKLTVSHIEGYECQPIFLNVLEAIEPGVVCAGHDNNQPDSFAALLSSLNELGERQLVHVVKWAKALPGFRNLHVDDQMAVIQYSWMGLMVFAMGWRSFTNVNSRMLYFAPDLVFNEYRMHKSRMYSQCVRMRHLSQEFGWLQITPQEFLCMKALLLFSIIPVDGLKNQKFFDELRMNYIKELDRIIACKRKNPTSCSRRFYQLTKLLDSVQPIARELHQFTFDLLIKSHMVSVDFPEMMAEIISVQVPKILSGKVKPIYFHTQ
UniProt P03372, whole entry: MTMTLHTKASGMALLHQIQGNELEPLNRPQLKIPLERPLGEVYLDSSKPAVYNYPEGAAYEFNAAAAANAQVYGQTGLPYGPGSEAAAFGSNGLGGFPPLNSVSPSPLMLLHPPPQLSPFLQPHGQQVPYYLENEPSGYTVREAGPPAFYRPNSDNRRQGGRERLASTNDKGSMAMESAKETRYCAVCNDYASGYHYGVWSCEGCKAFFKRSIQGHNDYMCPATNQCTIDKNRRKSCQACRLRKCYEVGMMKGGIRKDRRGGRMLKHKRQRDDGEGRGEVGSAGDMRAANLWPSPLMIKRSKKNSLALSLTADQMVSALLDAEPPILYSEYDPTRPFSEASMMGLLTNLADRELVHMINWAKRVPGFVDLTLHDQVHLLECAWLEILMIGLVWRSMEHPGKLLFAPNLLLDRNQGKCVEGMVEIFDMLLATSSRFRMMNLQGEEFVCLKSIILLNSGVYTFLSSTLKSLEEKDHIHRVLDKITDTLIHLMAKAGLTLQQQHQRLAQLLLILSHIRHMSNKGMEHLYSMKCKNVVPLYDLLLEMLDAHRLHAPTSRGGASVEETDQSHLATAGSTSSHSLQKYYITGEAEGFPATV
UniProt P16473, whole entry: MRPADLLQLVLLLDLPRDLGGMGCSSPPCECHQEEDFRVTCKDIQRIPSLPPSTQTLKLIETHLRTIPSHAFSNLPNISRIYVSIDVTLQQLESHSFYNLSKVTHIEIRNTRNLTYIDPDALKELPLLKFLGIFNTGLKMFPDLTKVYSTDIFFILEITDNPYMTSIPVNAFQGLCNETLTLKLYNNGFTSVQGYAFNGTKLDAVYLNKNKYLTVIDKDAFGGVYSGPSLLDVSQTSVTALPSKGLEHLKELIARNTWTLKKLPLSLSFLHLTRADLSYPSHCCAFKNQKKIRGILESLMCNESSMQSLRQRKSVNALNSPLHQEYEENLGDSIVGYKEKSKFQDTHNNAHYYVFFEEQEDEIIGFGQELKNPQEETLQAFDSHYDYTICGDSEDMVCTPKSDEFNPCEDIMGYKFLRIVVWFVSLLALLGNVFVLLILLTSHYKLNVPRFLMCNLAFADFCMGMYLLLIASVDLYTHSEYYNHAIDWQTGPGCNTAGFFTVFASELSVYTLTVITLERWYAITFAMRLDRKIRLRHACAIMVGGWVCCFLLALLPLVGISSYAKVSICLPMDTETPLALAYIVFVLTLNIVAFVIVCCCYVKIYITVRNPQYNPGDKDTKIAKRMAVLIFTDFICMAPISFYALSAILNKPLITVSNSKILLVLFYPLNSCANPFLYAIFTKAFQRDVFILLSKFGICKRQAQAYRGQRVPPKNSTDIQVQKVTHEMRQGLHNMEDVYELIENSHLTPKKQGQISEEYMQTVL
UniProt P06401, whole entry: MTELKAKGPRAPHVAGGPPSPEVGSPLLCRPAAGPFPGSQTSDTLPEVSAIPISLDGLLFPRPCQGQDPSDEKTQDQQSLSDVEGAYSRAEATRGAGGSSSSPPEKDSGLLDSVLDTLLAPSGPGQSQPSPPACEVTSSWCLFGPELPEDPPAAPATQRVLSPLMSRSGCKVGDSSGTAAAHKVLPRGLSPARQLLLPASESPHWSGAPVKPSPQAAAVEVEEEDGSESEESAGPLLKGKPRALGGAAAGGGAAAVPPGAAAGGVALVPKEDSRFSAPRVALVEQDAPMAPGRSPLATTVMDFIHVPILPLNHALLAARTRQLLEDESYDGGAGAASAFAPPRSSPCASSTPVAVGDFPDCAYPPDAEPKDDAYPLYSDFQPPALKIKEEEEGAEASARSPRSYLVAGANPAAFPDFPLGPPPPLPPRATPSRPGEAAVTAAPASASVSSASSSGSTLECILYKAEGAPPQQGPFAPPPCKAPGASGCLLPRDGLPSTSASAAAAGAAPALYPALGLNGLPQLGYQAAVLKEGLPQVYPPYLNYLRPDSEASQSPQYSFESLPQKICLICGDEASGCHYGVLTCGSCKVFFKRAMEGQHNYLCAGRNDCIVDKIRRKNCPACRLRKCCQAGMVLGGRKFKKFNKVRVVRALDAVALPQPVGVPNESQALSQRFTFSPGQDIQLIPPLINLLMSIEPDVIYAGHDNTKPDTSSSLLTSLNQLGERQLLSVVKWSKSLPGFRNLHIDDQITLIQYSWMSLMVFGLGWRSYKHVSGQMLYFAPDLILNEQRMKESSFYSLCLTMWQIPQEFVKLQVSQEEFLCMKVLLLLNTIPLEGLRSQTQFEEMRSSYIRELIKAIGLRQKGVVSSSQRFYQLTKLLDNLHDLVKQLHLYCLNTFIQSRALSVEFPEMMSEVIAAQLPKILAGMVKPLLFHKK

Legend:
[1] = qHTS assay to identify small molecule agonists of the estrogen receptor beta (ER-beta) signaling pathway - cell viability counter screen (AID 1259380); further: nearly all actives have a fitted effect of over 30% in size; further: potency means the concentration at half of the fitted maximal effect
How it was run: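 Steps: plate ER-beta-UAS-bla HEK293T cells, rest 6 hr; add compounds in DMSO; incubate 16 hr at 37C, 5% CO2; add FRET substrate 2 hr; add CellTiter-Glo, wait 30 min at room temperature; read luminescence.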

[2] = target: Androgen receptor (Homo sapiens) (UniProt P10275); assay: qHTS assay to identify small molecule agonists of the androgen receptor (AR) signaling pathway in the presence of an antagonist (AID 1259381; calls by dose curve; further: nearly all actives have a fitted effect of over 15% in size; further: potency means the concentration at half of the fitted maximal effect)
[3] = qHTS assay to identify small molecule antagonists of the estrogen receptor beta (ER-beta) signaling pathway - cell viability counter screen (AID 1259382); details: ER-beta-UAS-bla HEK293T viability, CellTiter-Glo luminescence, 16 h; at 92.4 µM (top of the series) unless noted;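 further: HEK293T cells carrying ER-beta-UAS-bla reporter stimulated with estradiol; nearly all actives have a fitted effect of over 55% in size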
How it was run: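 Viability is scored by CellTiter-Glo luminescence (30 min, room temperature) in ER-beta-UAS-bla HEK293T wells already read for reporter fluorescence. Compound exposure lasts 16 hr at 37C alongside 1nM 17-beta-estradiol in charcoal-stripped serum medium.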

[4] = target: Estrogen receptor (Homo sapiens) (UniProt P03372); assay: qHTS assay to identify small molecule agonists of the estrogen receptor alpha (ER-alpha) signaling pathway in the presence of an antagonist (AID 1259383; calls by dose curve; further: top concentration of the series differs between compounds; nearly all actives have a fitted effect of over 15% in size); details: VM7Luc4E2 cells, ERE-luciferase, +ICI-182,780, 22 h; at 92.4 µM (top of the series) unless noted
[5] = qHTS assay to identify small molecule agonists or antagonists of the thyroid stimulating hormone receptor (TSHR) signaling pathway - wild type cell line counter screen (AID 1259384; calls by dose curve); details: HEK293 wild type, cAMP HTRF counter-screen, stronger effect = higher value; at 92.4 µM (top of the series) unless noted
How it was run: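 Wild-type HEK293 cells were plated 18 h at 37 C/5% CO2, pin-dosed with compound plus Ro20-1724 medium, held 30 min at room temperature, then given cAMP-d2 and anti-cAMP-cryptate; fluorescence was read after 1 h. Fifteen concentrations, triplicate.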

[6] = target: Thyrotropin receptor (Homo sapiens) (UniProt P16473); assay: qHTS assay to identify small molecule antagonists of the thyroid stimulating hormone receptor (TSHR) signaling pathway (AID 1259385; calls by dose curve; further: nearly all actives have a fitted effect of over 20% in size); details: TSHR-HEK293 cAMP HTRF, TSH-stimulated antagonist mode
[7] = qHTS assay to identify small molecule agonists of the estrogen receptor alpha (ER-alpha) signaling pathway in the presence of an antagonist - cell viability counter screen (AID 1259386); details: VM7Luc4E2 viability, CellTiter-Fluor fluorescence, 22 h; at 92.4 µM (top of the series);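 further: cells exposed to compounds for 22 h at 37 °C before the viability read; nearly all actives have a fitted effect of over 30% in size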
How it was run: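 In this counter screen, compound effects on VM7Luc4E2 viability were tested in the presence of the antagonist ICI-182,780 at 10.0nM final. Compounds were dosed at 15 concentrations, exposure lasted 22hr, and the CellTiter-Fluor signal was read.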

[8] = target: Progesterone receptor (Homo sapiens) (UniProt P06401); assay: qHTS assay to identify small molecule agonists of the progesterone receptor (PR) signaling pathway (AID 1346784; calls by dose curve; further: nearly all actives have a fitted effect of over 30% in size; further: potency means the concentration at half of the fitted maximal effect)
How it was run: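 Seed PR-UAS-bla HEK 293T cells (2% charcoal-stripped FBS), incubate 6 hr at 37C; add compounds in DMSO, 16 hr at 37C; add LiveBLAzer B/G substrate, 2 hr RT; read fluorescence intensity.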

[9] = target: Progesterone receptor (Homo sapiens) (UniProt P06401); assay: qHTS assay to identify small molecule antagonists of the progesterone receptor (PR) signaling pathway (AID 1346795; active means well fitted inhibition curve with a large enough effect in the signal ratio in the repeat runs, not every such curve was filed as active; the % refers to the signal ratio; further: potency means the concentration at half of the fitted maximal effect)
How it was run: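 Screening used a GripTite HEK293T line with PR-responsive UAS-beta-lactamase. Cells were challenged with compound in the presence of 1 nM R5020 final for 16 hr at 37C; B/G FRET substrate, 2 hr room temperature, fluorescence.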

[10] = qHTS assay to identify small molecule antagonists of the progesterone receptor (PR) signaling pathway - cell viability counter screen (AID 1346798); details: PR-UAS-bla HEK293T viability, CellTiter-Glo luminescence, 16 h; further: nearly all actives have a fitted effect of over 50% in size
How it was run: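 Measures cytotoxicity in parallel with the PR antagonist reporter read: HEK293T PR-UAS-bla cells get compound and R5020 for 16 hr, and remaining viable cells are quantified by CellTiter-Glo luminescence.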
On the % scale 0 is the no-effect control and ±100 the full control effect.

Compound | Potency [1] | Potency [2] | activity change, negative = cytotoxicity [3] | activation [4] | cAMP activity change [5] | activity change, negative = inhibition ([6]; at 92.4 µM (top of the series)) | activity change, negative = cytotoxicity [7] | Potency [8] | Potency [9] | activity change, negative = cytotoxicity ([10]; at 92.4 µM (top of the series)) | activity change, negative = inhibition ([6]; at 42.5 µM (top of the series)) | activity change, negative = cytotoxicity ([10]; at 42.5 µM (top of the series))
CN(C)CCCl | inactive | inactive | inactive: 1.06% | inactive: -0.998% | inactive: -0.329% | inactive: 0.463% | inactive: -2.94% | inactive | inactive | inactive: -16.2% |  | 
Cc1cccc([N+](=O)[O-])c1[N+](=O)[O-] | inactive | active: 18.3 µM |  |  | inactive: 0.912% [at 42.5 µM] |  |  | active: 2.05 µM |  |  | inactive: 1.33% | inactive: 2.52%
O=[N+]([O-])[O-].[NH4+] | inactive |  | inactive: 9.03% and inactive: 3.4% |  | inactive: -0.419% and inactive: 1.33% |  | inactive: 2.42% and inactive: 0.204% | inactive | inactive | inactive: -20.6% and inactive: 4.3% |  | 
Cc1ccc([N+](=O)[O-])c([N+](=O)[O-])c1 | active: 70 µM and inactive |  | inactive: -3.28% | inactive: -5.66% and inactive: -0.349% | inactive: -0.984% and inactive: -17.2% |  | inactive: -9.73% |  |  |  |  | 
CCOP(=O)(CC)Oc1ccc([N+](=O)[O-])cc1 (stereo not given) | inactive | inactive | inactive: -3.61% [at 42.5 µM] | inactive: 1.01% [at 42.5 µM] | inactive: -7.7% [at 42.5 µM] |  |  |  | active: 9.44 µM |  |  | inactive: -22.3%
CCOP(=O)(CC)OCC | inactive |  | inactive: 18.1% |  | inactive: -0.581% | inactive: -0.738% | inactive: 4.64% | inactive |  | inactive: 14.1% |  | 
COP(C)(=O)OC | inactive |  | inactive: 0.192% and inactive: 9.17% | inactive: 0.04% and inactive: -0.709% | inactive: 0.263% and inactive: 1.72% | inactive: -1.11% and inactive: 0.869% | inactive: 1.09% and inactive: 0.369% | inactive | inactive | inactive: 13.9% and inactive: 2.83% |  | 
C/C1=C2N=C(/C=C3N=C(/C(C)=C4\[N-][C@@](C)([C@@H]5N=C1[C@](C)(CCC(=O)NC[C@@H](C)OP(=O)([O-])O[C@H]1[C@@H](O)[C@@H](n6cnc7cc(C)c(C)cc76)O[C@@H]1CO)[C@H]5CC(N)=O)[C@@](C)(CC(N)=O)[C@@H]4CCC(N)=O)[C@@](C)(CC(N)=O)[C@@H]\3CCC(N)=O)C(C)(C)[C@@H]/2CCC(N)=O.[C-]#N.[Co+3] | inactive |  | inactive: 5.86% [at 42.5 µM] | inactive: -2.73% [at 42.5 µM] | inactive: -1.7% [at 42.5 µM] |  |  | inactive | inactive |  |  | inactive: -1%
Cc1c([N+](=O)[O-])cccc1[N+](=O)[O-] | inactive |  | inactive: -1.44% and inactive: 5.26% |  | inactive: -3.3% and inactive: 5.51% | inactive: 4.87% and inactive: -0.806% | inactive: 2.3% and inactive: 2.01% | inactive | inactive | inactive: 28.5% |  | 
COc1ccc([N+](=O)[O-])cc1[N+](=O)[O-] | inactive |  | inactive: 8.69% | inactive: -1.4% | inactive: -0.0677% | inactive: -0.386% | inactive: 0.371% | inactive | inactive | inactive: 0.38% |  | 
N=C(N)N[N+](=O)[O-] | inactive | inactive | inactive: 1.42% | inactive: -1.5% | inactive: -1.35% | inactive: 0.236% | inactive: -3.75% | inactive | inactive | inactive: 0.201% |  | 
